In series [1] the target is human TGR5 (Homo sapiens, UniProt Q8TDU6). Put plainly: In vitro TGR5 reporter gene assay (hTGR5/CRE/HEK293). The settings on record: read-out: hTGR5 EC50, CRE-luciferase reporter in HEK293, mean ± SD of three independent experiments.
The target of series [2] is mouse TGR5 (Mus musculus, UniProt Q80SS6). Put plainly: In vitro TGR5 reporter gene assay (mTGR5/CRE/HEK293). As to conditions: read-out: mTGR5 EC50, CRE-luciferase reporter in HEK293, mean ± SD of three independent experiments.
Series [3] can be described thus: Solubility as noted in the SAR discussion. As to conditions: compounds containing Br. Format: physicochemical.
The test system of series [4] is Caco-2 cells. The series is described as follows: Caco-2 permeability determination. It counts as in vitro ADME. As to conditions: tested form: TFA. Background: Caco-2 monolayers are a common model of the intestinal barrier.

By UniProt entry, the sequences of proteins in these tests, tags left out.
UniProt Q8TDU6, whole entry: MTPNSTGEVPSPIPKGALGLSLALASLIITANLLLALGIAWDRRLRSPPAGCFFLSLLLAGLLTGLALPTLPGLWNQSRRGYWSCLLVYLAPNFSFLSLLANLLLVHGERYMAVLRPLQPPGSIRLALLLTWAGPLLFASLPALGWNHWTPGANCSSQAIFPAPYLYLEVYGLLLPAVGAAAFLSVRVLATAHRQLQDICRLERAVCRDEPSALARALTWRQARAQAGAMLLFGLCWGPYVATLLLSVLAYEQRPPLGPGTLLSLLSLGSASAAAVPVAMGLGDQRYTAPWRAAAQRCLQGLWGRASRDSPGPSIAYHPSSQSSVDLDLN
UniProt Q80SS6, whole entry: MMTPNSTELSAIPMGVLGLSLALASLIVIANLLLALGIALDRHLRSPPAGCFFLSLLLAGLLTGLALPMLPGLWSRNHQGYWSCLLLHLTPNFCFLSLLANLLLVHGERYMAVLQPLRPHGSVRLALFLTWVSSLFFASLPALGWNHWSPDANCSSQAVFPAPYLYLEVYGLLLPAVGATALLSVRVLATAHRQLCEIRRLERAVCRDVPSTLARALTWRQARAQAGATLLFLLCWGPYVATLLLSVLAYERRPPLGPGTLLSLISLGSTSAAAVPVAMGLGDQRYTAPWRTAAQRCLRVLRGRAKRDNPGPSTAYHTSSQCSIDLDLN

Like-named read-outs stand apart in the source and are kept apart here.

`C[N+](C)(C)CCN(CCC(=O)[O-])C(=O)CCc1cc(Cl)c(Oc2ccsc2C(=O)N2CCN(C3CC3)c3ccccc32)cc1Cl`: the EC50 in series [1] stood at 66 nM; in series [2], 16 nM.
For the compound `CN1CCN(C(=O)c2sccc2Oc2ccc(C(F)(F)F)cc2Br)c2ccccc21`, the EC50 in series [1] came to 1.7 nM; in series [2] it was 5.6 nM. Moreover, the “solubility (in words)” value in series [3] was “poor solubility”.
On to `Cc1cc(C(F)(F)F)ccc1Oc1ccsc1C(=O)N1CCN(C)c2ccccc21`, for which the EC50 in series [1] turned out to be 6.6 nM; in series [2] it was 12 nM.
As for `CN1CCN(C(=O)c2sccc2Oc2cc(Cl)ccc2Cl)c2ccccc21`, the EC50 in series [1] was 2 nM; in series [2] it was 15 nM.
As to `O=C(c1sccc1Oc1ccc(C(F)(F)F)cc1Br)N1CCN(C2CC2)c2ccccc21`, the EC50 in series [1] was 0.68 nM; in series [2], 1.3 nM. In addition, in series [3], the “solubility (in words)” value is “poor solubility”.
Regarding `CN(CC[N+](C)(C)C)C(=O)c1cc(Cl)c(Oc2ccsc2C(=O)N2CCN(C3CC3)c3ccccc32)cc1Cl`, the EC50 in series [1] (tested form: TFA) was 805 nM; in series [2] (tested form: TFA), 215 nM.
In the case of `CN(CC[N+](C)(C)C)C(=O)/C=C/c1cc(Cl)c(Oc2ccsc2C(=O)N2CCN(C3CC3)c3ccccc32)cc1Cl`, the EC50 amounted to 12 nM in series [1] (tested form: TFA) and 16 nM in series [2] (tested form: TFA).
`CN1CCN(C(=O)c2sccc2Oc2ccc(C(F)(F)F)cc2Cl)c2ccccc21`: the EC50 in series [1] is 2.7 nM; in series [2], 6.9 nM.
As for `O=C(c1sccc1Oc1cccc(Cl)c1)N1CCN(C2CC2)c2ccccc21`, the EC50 in series [1] came out at 26 nM.
With `C[N+](C)(C)C1CCN(C(=O)CCc2cc(Cl)c(Oc3ccsc3C(=O)N3CCN(C4CC4)c4ccccc43)cc2Cl)CC1`, the EC50 in series [1] (tested form: TFA) turned out to be 4.5 nM; in series [2] (tested form: TFA), 2.8 nM. In addition, in series [4] (Caco-2, apical to basolateral side), the “Papp A to B” value was 0.2 10^−6 cm/s. Further, the “Papp B to A” value in series [4] (Caco-2, basolateral to apical side) was 0.84 10^−6 cm/s. Also, the Efflux ratio in series [4] (Caco-2) came to 4.1.
With `CCN(CC[N+](C)(C)C)C(=O)CCc1cc(Cl)c(Oc2ccsc2C(=O)N2CCN(C3CC3)c3ccccc32)cc1Cl`, the values for the EC50 in series [1] (tested form: TFA) and in series [2] (tested form: TFA) were 4.7 nM and 3.1 nM, respectively.
On the same counts, the results for `CN(CC[N+](C)(C)C)C(=O)C/C=C/c1cc(Cl)c(Oc2ccsc2C(=O)N2CCN(C3CC3)c3ccccc32)cc1Cl` are 24 nM and 13 nM.
Turning to `C[N+]1(C)CCN(C(=O)CCc2cc(Cl)c(Oc3ccsc3C(=O)N3CCN(C4CC4)c4ccccc43)cc2Cl)CC1`, the EC50 turned out to be 8.7 nM in series [1] (tested form: TFA) and 1.2 nM in series [2] (tested form: TFA).
For the compound `CN1CCN(C(=O)c2sccc2Oc2cccc(Cl)c2)c2ccccc21`, in series [1], the EC50 stood at 54 nM.
On to `C[N+](C)(CCCN(CCC[N+](C)(C)CC(=O)[O-])C(=O)CCc1cc(Cl)c(Oc2ccsc2C(=O)N2CCN(C3CC3)c3ccccc32)cc1Cl)CC(=O)[O-]`, for which the EC50 in series [1] turned out to be 242 nM; in series [2] it was 290 nM.
On to `CN(CCC[N+](C)(C)C)C(=O)CCc1cc(Cl)c(Oc2ccsc2C(=O)N2CCN(C3CC3)c3ccccc32)cc1Cl`, for which the EC50 stood at 6.6 nM in series [1] (tested form: TFA) and 4.9 nM in series [2] (tested form: TFA).
For the compound `O=C(c1sccc1Oc1cc(Cl)c(Br)cc1Cl)N1CCN(C2CC2)c2ccccc21`, the EC50 in series [1] came out at 0.49 nM; in series [2], 1.7 nM. Further, the “solubility (in words)” value in series [3] is “poor solubility”.
Turning to `CN(CC[N+](C)(C)C)C(=O)CCCc1cc(Cl)c(Oc2ccsc2C(=O)N2CCN(C3CC3)c3ccccc32)cc1Cl`, in series [2] (tested form: TFA), the EC50 came to 8.7 nM.
On to `O=C(c1sccc1Oc1ccc(C(F)(F)F)cc1)N1CCN(C2CC2)c2ccccc21`, for which the EC50 in series [1] turned out to be 40 nM.

By EC50 is commonly meant the concentration giving half of the maximal effect.

(Values after publication PMC4919643, “Intestinally-targeted TGR5 agonists equipped with quaternary ammonium have an improved hypoglycemic effect and reduced gallbladder filling effect” (Scientific Reports, 2016).)
